Experiment [1] deals with PDK-1 (Homo sapiens, UniProt O15530). The experiment is described as follows: PDK-1 kinase inhibition ELISA assay (phosphorylation of His6-tagged SGK1 S422D by PDK-1). The format is biochemical. Conditions: read-out: Average IC50; PDK-1 ELISA, Table 11.
Experiment [2] addresses PKA (Homo sapiens, UniProt P17612). The experiment can be described thus: PKA kinase inhibition, Z'-LYTE FRET assay. The conditions noted are these: read-out: PKA IC50.
Experiment [3] addresses S6K (Homo sapiens, UniProt P23443). The experiment is described as follows: S6K kinase inhibition, Z'-LYTE FRET assay. Conditions: read-out: S6K IC50; 100 μM ATP.

The chains behind the UniProt entries cited, without tags or fusion partners. Where a name states a change or a piece, a line headed by the entry shows the natural chain unless it says otherwise.
UniProt O15530, whole entry: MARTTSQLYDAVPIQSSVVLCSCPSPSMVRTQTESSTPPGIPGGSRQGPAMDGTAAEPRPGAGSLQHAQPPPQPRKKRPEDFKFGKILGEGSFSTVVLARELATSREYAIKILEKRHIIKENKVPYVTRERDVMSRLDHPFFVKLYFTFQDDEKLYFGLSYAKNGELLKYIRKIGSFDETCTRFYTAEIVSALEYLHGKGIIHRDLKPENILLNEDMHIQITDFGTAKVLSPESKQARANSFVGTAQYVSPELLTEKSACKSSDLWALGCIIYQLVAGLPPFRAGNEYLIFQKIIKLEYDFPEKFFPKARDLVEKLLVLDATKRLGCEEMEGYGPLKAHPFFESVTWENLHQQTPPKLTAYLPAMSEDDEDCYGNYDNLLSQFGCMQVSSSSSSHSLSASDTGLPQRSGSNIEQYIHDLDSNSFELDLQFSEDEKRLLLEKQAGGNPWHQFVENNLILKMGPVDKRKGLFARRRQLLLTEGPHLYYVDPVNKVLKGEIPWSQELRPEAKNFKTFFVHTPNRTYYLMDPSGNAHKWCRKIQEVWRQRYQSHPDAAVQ
UniProt P23443, whole entry: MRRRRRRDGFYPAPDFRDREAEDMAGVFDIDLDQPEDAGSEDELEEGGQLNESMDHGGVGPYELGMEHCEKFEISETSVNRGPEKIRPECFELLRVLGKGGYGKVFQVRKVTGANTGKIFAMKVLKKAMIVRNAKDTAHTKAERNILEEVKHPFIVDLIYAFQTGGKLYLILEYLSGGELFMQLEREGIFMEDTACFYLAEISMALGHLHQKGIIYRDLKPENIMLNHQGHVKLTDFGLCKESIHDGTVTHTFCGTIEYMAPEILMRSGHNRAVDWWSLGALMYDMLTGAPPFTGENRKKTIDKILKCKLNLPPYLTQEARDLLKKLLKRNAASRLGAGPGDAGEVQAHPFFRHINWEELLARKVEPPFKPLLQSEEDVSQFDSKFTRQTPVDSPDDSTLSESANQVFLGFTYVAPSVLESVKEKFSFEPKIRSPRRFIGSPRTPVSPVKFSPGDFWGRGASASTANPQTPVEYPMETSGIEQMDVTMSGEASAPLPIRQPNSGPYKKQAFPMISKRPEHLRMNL

The structures appear in SMILES notation. Where two headings read alike, the source gives them in different places.

In the case of `CNc1nc(-c2cncc(OC[C@@H](N)Cc3ccccc3)c2)cc2c1cnc1cc(OC)c(OC)cc12`, the IC50 in experiment [1] is 823 nM; in experiment [2] (20 μM ATP), greater than 4000 nM; in experiment [2] (100 μM ATP), greater than 2000 nM; in experiment [3] it was greater than 2000 nM.

As a reminder, the IC50 is the midpoint of a concentration-inhibition curve.
